How the values were obtained:
Assay type in all cases: in vivo, nude mice
[1] = system: HSC-2-Luc inoculated into tongue; assay: HSC-2 orthotopic transplantation mouse model; conditions: single agent, Q7Dx3: cetuximab 5 mg/kg, cisplatin 5 mg/kg, Compound (1) 0.09 mg/kg
[2] = system: FaDu subcutaneous xenograft; assay: FaDu subcutaneous xenograft model in combination with cetuximab; conditions: cetuximab 20 mg/kg alone
From the text: A human squamous cell carcinoma of the head and neck (SCCHN) cell line FaDu, which had been cultured in an RPMI-1640 medium containing 10% FBS, and penicillin and streptomycin, was adjusted to a concentration of 5×10^7 cells/mL with Hanks' Balanced Salt Solution to prepare a cell suspension. The cell suspension was inoculated in a volume of […] into a subcutaneous part of a right flank of nude mice, 7 weeks of ages (CAnN.Cg-Foxnlnu/CrlCrlj, female, Charles River Laboratories Japan Inc.). Ten days after cell inoculation, the shortest diameter and the longest diameter of a tumor in each mouse were measured by using an electronic digital caliper (Digimatic™ caliper, Mitutoyo Corporation), so as to calculate the volume of the tumor in accordance with the following calculation formulae: […]
On the basis of the volumes of tumors obtained on the first day of administration, the mice were grouped such that averages of the tumor volumes were substantially equal among the groups. Each test compound was dissolved in DMSO and a solution was stored at the freezer before use. Immediately before the administration, the stock solution was diluted in saline with 100 μM of hydroxypropyl-β-cyclodextrin. Each test compound and was intravenously administered at doses from ¼ MTD to ½ MTD in combination with cetuximab (Erbitux, Merck Serono Co., Ltd.). […]

[3] = system: KPL-4 subcutaneous xenograft; assay: KPL-4 subcutaneous xenograft model in combination with trastuzumab; conditions: trastuzumab 10 mg/kg alone
Method: A human HER-2 positive breast cancer cell line KPL-4, which had been cultured in an RPMI-1640 medium containing 10% FBS, and penicillin and streptomycin, was adjusted to a concentration of 1×10^8 cells/mL with Hank's Balanced Salt Solution to prepare a cell suspension. The cell suspension was inoculated in a volume of 100 μL into a subcutaneous part of a right flank of nude mice, 7 weeks of ages (CAnN.Cg-Foxnlnu/CrlCrlj, female, Charles River Laboratories Japan, Inc.). Sixteen days after the cell inoculation, the shortest diameter and the longest diameter of a tumor in each mouse were measured by using an electronic digital caliper (Digimatic™ caliper, Mitutoyo Corporation), so as to calculate the volume of the tumor in accordance with the following calculation formulae: […]
On the basis of the volumes of tumors obtained on the first day of administration, the mice were grouped such that averages of the tumor volumes were substantially equal among the groups. The experiment was conducted on groups each consisting of 6 mice. Each test compound was dissolved in DMSO and a solution was stored at the freezer before use. Immediately before the administration, the stock solution was diluted in saline. The test compound was intravenously administered at 0.09 mg/kg or 0.18 mg/kg in combination with trastuzumab (Herceptin, Genentech, Inc.).

Row | Substance | ILS (%) [1] | Tumor Regression on day 35 (%) [2] | Tumor Regression (%) [3]
1 | cetuximab [reference compound] | 231% | −242% | –
2 | trastuzumab [reference compound] | – | – | 0%

From patent US20240309014A1, “MACROCYCLIC COMPOUNDS AND USES THEREOF” (President and Fellows of Harvard College, priority 2017, published 2024)
